From patent US20240293304A1, “SULFONATE-FUNCTIONALIZED ALKYL POLYGLUCOSIDES AS SULFATE-FREE SURFACTANTS FOR TOOTHPASTE AND MOUTHWASH” (Colonial Chemical, Inc., priority 2021, published 2024) come the findings set out here.

In this data set the test system is In vitro epidermal keratinocytes. Format: cell-based.

“sorbitan oleate decylglucoside crosspolymer [Poly Suga®Mulse D9]” displayed an ET-50 of no less than 256 min.
